Results on one compound are retold here after patent US4299813A, “Assay kit and method” (priority 1979, dated 1981).

Amino acid sequences for entries named in this document (tags omitted).
UniProt P31389, whole entry: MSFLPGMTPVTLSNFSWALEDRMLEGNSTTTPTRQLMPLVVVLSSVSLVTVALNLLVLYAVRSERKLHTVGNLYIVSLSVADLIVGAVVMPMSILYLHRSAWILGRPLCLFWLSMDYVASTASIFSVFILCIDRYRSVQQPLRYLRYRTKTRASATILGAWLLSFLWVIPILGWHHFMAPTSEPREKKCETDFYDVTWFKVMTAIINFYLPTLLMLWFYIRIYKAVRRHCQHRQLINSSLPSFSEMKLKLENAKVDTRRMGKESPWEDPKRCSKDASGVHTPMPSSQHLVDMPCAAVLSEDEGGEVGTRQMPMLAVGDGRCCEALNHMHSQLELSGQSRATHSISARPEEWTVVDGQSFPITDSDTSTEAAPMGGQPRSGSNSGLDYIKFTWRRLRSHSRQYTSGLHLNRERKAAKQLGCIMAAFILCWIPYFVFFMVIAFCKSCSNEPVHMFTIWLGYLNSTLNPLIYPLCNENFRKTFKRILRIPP

Several values for one entry are separate records, joined by “and”; a condition that tells them apart may be missing. Identical values can stand only once. Like-named read-outs stand apart in the source and are kept apart here.

The target of the test is histamine H1 receptor (guinea pig cerebellar membranes) (Cavia porcellus, UniProt P31389). As to conditions: Table I.
The mark [1] stands for this setting: Sample 1, actual concentration 1 μM.
Where [2] appears, read: Sample 2, actual concentration 0.2 μM.
The mark [3] stands for this setting: Standard C, 5 μM amitriptyline in serum.
The mark [4] stands for this setting: Standard D, 1 μM amitriptyline in serum.
The mark [5] stands for this setting: Standard E, .2 μM amitriptyline in serum.
[6] abbreviates: Standard F, .04 μM amitriptyline in serum.

For `CN(C)CCC=C1c2ccccc2CCc2ccccc21` [amitriptyline], the B/Bo by setting is: under setting [1], 0.369 and 0.414; under setting [2], 0.693 and 0.757; under setting [4], 0.394 and 0.377; under setting [5], 0.789 and 0.781; under setting [6], 0.951 and 0.906. Besides, the CPM is 4179 CPM and 4536 CPM under setting [1]; 6758 CPM and 7262 CPM under setting [2]; 1187 CPM and 1083 CPM and 1484 CPM (Standard A, 100 μM amitriptyline in serum); 2132 CPM and 1864 CPM under setting [3]; 4383 CPM and 4244 CPM under setting [4]; 7523 CPM and 7456 CPM under setting [5]. Moreover, under setting [6], the CPM is 8804 CPM and 8448 CPM. Besides, the Calculated conc. is, setting by setting: under setting [1], 1.058 µM and 0.884 µM; under setting [2], 0.292 µM and 0.215 µM. Further, the “Logit (B/Bo)” value reads like this: under setting [1], -0.234 and -0.151; under setting [2], 0.354 and 0.493; under setting [3], -0.904 and -1.078; under setting [4], -0.187 and -0.219; under setting [5], 0.574 and 0.552.
